ChEMBL document CHEMBL1141671, “N6-1,3-diphenylurea derivatives of 2-phenyl-9-benzyladenines and 8-azaadenines: synthesis and biological evaluation as allosteric modulators of A2A adenosine receptors” (Eur J Med Chem, 2008)

System: Aorta
Assay: Vasorelaxation activity in Wistar rat endothelium-intact aortic ring assessed as inhibition of noradrenaline-induced contraction after 20 mins
Assay type: functional, tissue-based

CCNC(=O)[C@H]1O[C@@H](n2cnc3c(N)nc(NCCc4ccc(CCC(=O)O)cc4)nc32)[C@H](O)[C@@H]1O [CGS-21680]
Activity: Dose-dependent effect
